The target in this assay is Kappa-type opioid receptor (Homo sapiens, UniProt P41145). The assay is described as follows: Stimulation of [35S]GTP-gamma-S binding at kappa opioid receptor in human brain cortical membrane. (In general: GTPγS is a poorly hydrolysed GTP analogue; its binding reports G protein activation.)

pEC50: −log10 of the molar value.

The text below walks through data of ChEMBL document CHEMBL1138911 (Bioorg Med Chem Lett, 2006).

Consider `CO[C@]12CC[C@@]3(C[C@@H]1[C@@](C)(O)C1CCC1)C1Cc4ccc(O)c5c4[C@@]3(CCN1CC1CC1)[C@H]2O5`, for which the pEC50 was 8.74.

For orientation: pEC50 means the EC50 on a negative log10 scale, so that one unit is a factor of ten. Low readings indicate a high EC50, high ones a low EC50.
